This is a selection; strong and weak results do not stand in their true shares. The source made the active and inactive calls. The call rests on the fitted dose curve; in most records, active means well fitted activation curve with a large enough effect; inconclusive means small, poorly fitted or top-dose-only effect; inactive means no such curve, though single readings can be large or run the other way.

The test in a line: qHTS for compounds that reverse cellular toxicity of Amyloid beta (A-beta) peptide in yeast: Primary Screen. Further: nearly all actives have a fitted effect of over 55% in size. To be noted: yeast expressing A-beta42, growth rescue, OD600, 48 h, 0% DMSO, 100% iron-clioquinol control; at 46.1 µM (top of the series). An excerpt:
The A-beta peptide is produced by the processing of the amyloid precursor protein (APP) by two proteases, beta and gamma secretases. […] A-beta42 is regarded as the most amyloidogenic form due to its hydrophobicity; however, precisely how A-beta42 induces neurotoxicity is unclear. To understand further this biology and its potential therapeutic implications for human neurodegenerative disease, a quantitative high-throughput screen for compounds that reverse the cellular toxicity of the A-beta peptide was developed. A yeast based screen was used because it recapitulates the salient feature of protein mis-folding disorder accurately. This cell-based phenotypic screen provides a significant, unbiased advantage by letting the compounds and models inform us which proteins or pathways are most relevant. The ideal chemical candidates would therefore have activity in both our primary yeast and secondary neuronal toxicity assays, as well as in mouse models. They will be valuable tools for dissecting diverse protein homeostasis pathologies and could potentially become the focus for future pre-clinical development. For this luminescence assay, inhibition of A-beta rescues the toxic effect in the yeast cell, resulting in increase of signals and the desired phenotype of "Activator". This screen is run against the Molecular Libraries Small Molecule Repository (MLSMR) and the NCGC Sytravon Library Collection.
NIH Chemical Genomics Center [NCGC]
NIH Molecular Libraries Probe Centers Network [MLPCN]
Assay Submitter (PI): Susan Lindquist, Whitehead Institute, Massachusetts Institute of Technology
[1] Vassar R,et al (1999). Beta-secretase cleavage of Alzheimer's amyloid precursor protein by the transmembrane aspartic protease BACE. Science. 286: 735-741.
[2] Yan R, et al (1999). Membrane-anchored aspartyl protease with Alzheimer's disease beta-secretase activity. Nature. 402: 533-536.
Two and a half microliter / well of yeast growth medium were dispensed in a 1536 assay plate. Compounds were pinned using the Kalypsys robotic system followed by addition of 2.5 uL / well yeast solution. The assay plates were incubated at 30 C. After 48 hr, the absorbance signal at 600 nm was obtained using the PerkinElmer ViewLux plate reader to assess yeast growth. The data was normalized to the positive control of an equimolar mixture of ferric chloride (FeCl3) and clioquinol and to the negative control DMSO.
`CC1=NCCc2c1[nH]c1ccccc21.O=[N+]([O-])c1cc([N+](=O)[O-])c(O)c([N+](=O)[O-])c1`: the growth rescue is inactive: 8.89%.
The result for `Cc1cc(C)cc(OP(C)(=O)Nc2ccc(C)cc2C)c1` (stereo unspecified) reads inactive: 13.4%; that for `CCOC(=O)c1ccc(NP(C)(=O)Oc2cc(C)cc(C)c2)cc1` (stereo unspecified), inactive: -3.62%.
The result for `COc1ccccc1OP(C)(=O)Nc1cccc(Br)c1` (stereo unspecified) reads inactive: -1.89%; that for `CP(=O)(Nc1cccc(Br)c1)Oc1ccccc1` (stereo unspecified), inactive: -12.7%.
In the case of `Cc1cc(C)cc(OP(C)(=O)Nc2ccccn2)c1` (stereo unspecified) it was inactive: 11.6%; in that of `Cc1ccc(C)c(NP(C)(=O)Oc2ccccc2)c1` (stereo unspecified), inactive: -4.17%; in that of `CN(Cc1cccnc1)C(=O)COc1ccc(Cl)c(Cl)c1.O=[N+]([O-])c1cc([N+](=O)[O-])c(O)c([N+](=O)[O-])c1`, inactive: -3.28%.
For `O=[N+]([O-])c1cc([N+](=O)[O-])c(-n2nnc3ccccc32)c([N+](=O)[O-])c1`, the growth rescue was inactive: 2.18%.
For `Cc1nc2ccc3ccccc3c2s1.O=[N+]([O-])c1cc([N+](=O)[O-])c(O)c([N+](=O)[O-])c1`, the growth rescue was inactive: -8.13%.
In the case of `O=[N+]([O-])c1cc([N+](=O)[O-])c(-c2cnn(-c3ccccc3)c2)c([N+](=O)[O-])c1` it was inactive: -92.4%; in that of `O=[N+]([O-])c1cc([N+](=O)[O-])c(Nc2nnnn2CCO)c([N+](=O)[O-])c1`, inactive: -7.33%.
Turning to `CC1=C2N=C(C=C3N=C(C(C)=C4[N-][C@@](C)([C@@H]5N=C1[C@](C)(CCC(=O)NC[C@@H](C)OP(=O)([O-])O[C@H]1[C@@H](O)[C@@H](n6cnc7cc(C)c(C)cc76)O[C@@H]1CO)[C@H]5CC(N)=O)[C@@](C)(CC(N)=O)[C@@H]4CCC(N)=O)[C@@](C)(CC(N)=O)[C@@H]3CCC(N)=O)C(C)(C)[C@@H]2CCC(N)=O.[C-]#N.[Co+3]`, the growth rescue is inactive: -1.33%.
Regarding `CP(=O)(Nc1ccc(SC(F)(F)F)cc1)Oc1ccccc1` (stereo unspecified), the growth rescue was inactive: 14.7%.
In the case of `CCCOc1ccc(NP(C)(=O)Oc2ccc(Cl)cc2)cc1` (stereo unspecified) it was inactive: 29.1%.
The result for `CN1CCCCC1COC(=O)C1(O)c2ccccc2CCc2ccccc21` (stereo unspecified) reads inactive: 17.3%.
The result for `COc1ccccc1OP(C)(=O)Nc1c(C)cccc1C` (stereo unspecified) reads inactive: 2.88%.
For the compound `COc1ccccc1OP(C)(=O)Nc1ccccc1` (stereo unspecified), the growth rescue was inactive: 4.9%.
In the case of `CP(=O)(Nc1ccccc1Br)Oc1ccccc1` (stereo unspecified) it was inactive: 19.5%; in that of `CP(=S)(Nn1cnnc1)Oc1ccccc1` (stereo unspecified), inactive: -17.7%.
The result for `CCc1ccc(OP(C)(=O)N2CCN(c3ccc([N+](=O)[O-])cc3)CC2)cc1` (stereo unspecified) reads inactive: 1.55%; that for `CP(=O)(NC(=O)Nc1ccccc1)Oc1ccccc1` (stereo unspecified), inactive: -6.72%; that for `Cc1cc(C)cc(OP(C)(=O)Nc2ccc(SC(F)(F)F)cc2)c1` (stereo unspecified), inactive: 13.5%.
The result for `Cc1cccc(C)c1OP(C)(=O)Nc1ccc(SC(F)(F)F)cc1` (stereo unspecified) reads inactive: 13.7%; that for `CP(=O)(Oc1ccccc1)OC(c1ccccc1)C(F)(F)F` (stereo unspecified), inactive: 8.97%; that for `CP(=O)(Nc1ccccn1)Oc1ccc(Cl)cc1` (stereo unspecified), inactive: 3.32%.
As for `CCOP(C)(=S)SCC(=O)NC(C)C(=O)O` (stereo unspecified), the growth rescue was inactive: 12.6%.
In the case of `O=[N+]([O-])c1cc([N+](=O)[O-])c(O)c([N+](=O)[O-])c1.c1ccc(Oc2ccncc2)cc1` it was inactive: 10.3%; in that of `CCOC(=O)c1ccc(NP(C)(=O)Oc2ccc(OC)cc2)cc1` (stereo unspecified), inactive: 5.08%; in that of `CCN(CC)CCCOC(=O)C(O)(c1ccccc1)c1ccccc1`, inactive: 10.3%.
The result for `COc1ccccc1-c1ccccn1.O=[N+]([O-])c1cc([N+](=O)[O-])c(O)c([N+](=O)[O-])c1` reads inactive: -3.82%; that for `CC(C)(C)c1ccc(OP(C)(=O)Nc2ccc(SC(F)(F)F)cc2)cc1` (stereo unspecified), inactive: 4.18%.
In the case of `Cc1cccc(C)c1OP(C)(N)=O` (stereo unspecified), the growth rescue was inactive: 5.48%.
The result for `O=[N+]([O-])c1ccc2c(c1)C=Nc1ccccc1O2` reads inactive: -38.4%; that for `O=[N+]([O-])c1cc([N+](=O)[O-])c(Nc2cccnc2)c([N+](=O)[O-])c1`, inactive: -25%.
In the case of `COc1ccccc1OP(C)(=O)Nc1cc(Cl)ccc1C` (stereo unspecified) it was inactive: -5.02%; in that of `COc1ccc(OP(C)(=O)Nc2cccc(F)c2)cc1` (stereo unspecified), inactive: 10.2%.
In the case of `Cc1cc(C)cc(OP(C)(N)=O)c1` (stereo unspecified) it was inactive: -19.1%; in that of `CCOC(=O)c1ccc(NP(C)(=O)Oc2ccccc2)cc1` (stereo unspecified), inactive: 7.33%.
As to `COc1ccccc1OP(C)(=O)Nc1ccc(C)cc1` (stereo unspecified), the growth rescue is inactive: 25.2%.
The result for `Cc1ccc(NP(C)(=O)Oc2ccccc2)c(C)c1` (stereo unspecified) reads inactive: 0.0874%; that for `COc1ccc(OP(C)(=O)Nc2ccccc2Br)cc1` (stereo unspecified), inactive: -13.9%.
The result for `COc1ccccc1OP(C)(=O)Nc1ccc(C)c(C)c1` (stereo unspecified) reads inactive: 11.7%; that for `Cc1cc(C)cc(OP(C)(=O)Nc2cccc(C(F)(F)F)c2)c1` (stereo unspecified), inactive: 6.52%.
The result for `CP(=O)(OCCOc1ccccc1)OCCOc1ccccc1` reads inactive: 1.54%.
In the case of `CCCCCCCCCCCCCCCC1C[N+](C)(C)CCOP(C)(=O)O1` (stereo unspecified), the growth rescue is inactive: -50.3%.
In the case of `CP(=O)(Nc1ccc(Cl)cc1Cl)Oc1ccccc1` (stereo unspecified) it was inactive: 11.3%; in that of `CN(C)CCOC(=O)C(O)(c1ccccc1)C1CCCC1` (stereo unspecified), inactive: -1.21%; in that of `COc1ccc(OP(C)(=O)Nc2ccccn2)cc1` (stereo unspecified), inactive: -21.3%.
In the case of `COc1ccccc1OP(C)(=O)Nc1ccc(Br)cc1` (stereo unspecified) it was inactive: 10.5%; in that of `CCc1ccc(OP(C)(=O)O)cc1`, inactive: 0.74%; in that of `CP(=O)(Nc1ccccn1)Oc1ccccc1` (stereo unspecified), inactive: -3.31%.
The result for `COc1ccccc1OP(C)(=O)Nc1ccc(C)cc1C` (stereo unspecified) reads inactive: 20.8%.
In the case of `O=[N+]([O-])c1cc([N+](=O)[O-])c(Nc2ccccn2)c([N+](=O)[O-])c1`, the growth rescue is inactive: -90.4%.
The result for `Cc1c(NP(C)(=O)Oc2ccc(C(C)C)cc2)c(=O)n(-c2ccccc2)n1C` (stereo unspecified) reads inactive: 10.8%; that for `CP(=O)(Oc1ccccc1)N1CCOC1=O` (stereo unspecified), inactive: 1.16%; that for `CCc1ccc(OP(C)(=O)Nc2cccnc2)cc1` (stereo unspecified), inactive: 24.3%.
Regarding `COc1ccccc1OP(C)(=O)Nc1c(C)n(C)n(-c2ccccc2)c1=O` (stereo unspecified), the growth rescue was inactive: 4.58%.
The result for `O=C(OCCCN1CCCC1)C(O)(c1ccccc1)C1CCCCC1` (stereo unspecified) reads inactive: 5.81%; that for `CCN(CC)CC(O)COC(=O)C(O)(c1ccccc1)C1CCCCC1` (stereo unspecified), inactive: -4.28%.
In the case of `CN(C)C(=O)c1c([N+](=O)[O-])cc([N+](=O)[O-])cc1[N+](=O)[O-]` it was inactive: -13.7%; in that of `CC(C)(C)c1ccc(OP(C)(=O)O)cc1`, inactive: 29.1%; in that of `COc1ccccc1OP(C)(=O)Nc1ccccc1Br` (stereo unspecified), inactive: 6.74%.
Consider `CP(=O)(OC12CC3CC(CC(C3)C1)C2)OC12CC3CC(CC(C3)C1)C2`, for which the growth rescue was inactive: 5.1%.
In the case of `CCOC(=O)c1ccc(NP(C)(=O)Oc2ccc(Cl)cc2)cc1` (stereo unspecified) it was inactive: -0.442%; in that of `Nc1ccc2c(ccc3cccnc32)n1.O=[N+]([O-])c1cc([N+](=O)[O-])c(O)c([N+](=O)[O-])c1`, inactive: -2.35%; in that of `COc1ccc(NP(C)(=O)Oc2ccccc2OC)cc1` (stereo unspecified), inactive: -12.1%.
Consider `CN(C)CCOC(=O)C(O)(c1ccccc1)C1CCCCC1` (stereo unspecified), for which the growth rescue was inactive: 3.45%.
The result for `COc1ccc(OP(C)(=O)Nc2cccc(Br)c2)cc1` (stereo unspecified) reads inactive: 8.62%; that for `Cc1c(C(c2ccc3c(c2)OCO3)c2c(C)n(C)n(-c3ccccc3)c2=O)c(=O)n(-c2ccccc2)n1C.O=[N+]([O-])c1cc([N+](=O)[O-])c(O)c([N+](=O)[O-])c1`, inactive: -14.6%.
In the case of `Cc1cc(-c2cccc3ccccc23)c(C)cn1.O=[N+]([O-])c1cc([N+](=O)[O-])c(O)c([N+](=O)[O-])c1` it was inactive: -11.8%; in that of `O=[N+]([O-])c1ccc(OP2(=O)COCCO2)cc1` (stereo unspecified), inactive: -1.45%; in that of `CCOP(C)(=S)SCC(=O)NC(C)(CC)C(=O)O` (stereo unspecified), inactive: 4.01%.
The result for `CP(=O)(Nc1ccc(SC(F)(F)F)cc1)Oc1ccc(F)cc1` (stereo unspecified) reads inactive: 27.6%; that for `O=[N+]([O-])c1cc([N+](=O)[O-])c(C(F)(F)F)c([N+](=O)[O-])c1O`, inactive: -13.2%.
`Cc1ccccc1NP(C)(=O)Nc1ccccc1C`: the growth rescue was inactive: 12.5%.
In the case of `CP(=O)(Nc1ccc2c(c1)OCCO2)Oc1ccccc1` (stereo unspecified) it was inactive: -1.79%; in that of `CC(C)c1ccc(OP(C)(=O)Nc2ccc(SC(F)(F)F)cc2)cc1` (stereo unspecified), inactive: 0.804%.
The result for `CP(=O)(Nc1ccccc1F)Oc1ccccc1` (stereo unspecified) reads inactive: -25.2%.
In the case of `O=C(OCCN1CCN(CCOCc2ccccc2)CC1)C(O)(c1ccccc1)c1ccccc1` it was inactive: 1.82%; in that of `COc1ccc(OP(C)(=O)Nc2ccc(SC(F)(F)F)cc2)cc1` (stereo unspecified), inactive: 18.4%.
Turning to `CCOC(=O)c1ccc(NP(C)(=O)Oc2ccc(F)cc2)cc1` (stereo unspecified), the growth rescue is inactive: 10%.
Take `CCCCCOc1ccc(NP(C)(=O)Oc2ccc(Cl)cc2Cl)cc1` (stereo unspecified): the growth rescue was inactive: -8.73%.
The result for `CP(=O)(Nc1ccccc1)Oc1ccc(F)cc1` (stereo unspecified) reads inactive: 3.82%.
On to `CCN(CC)CCCOC(=O)C(O)(c1ccccc1)C1CCCCC1` (stereo unspecified), for which the growth rescue is inactive: 9.87%.
In the case of `Cc1c([N+](=O)[O-])cc([N+](=O)[O-])c(Br)c1[N+](=O)[O-]` it was inactive: -94.5%.

Values taken from PubChem BioAssay AID1347071 (National Center for Advancing Translational Sciences (NCATS), 2019).
